The results in this text go back to patent US20230212164A1, “ANNULATED 2-AMINO-3-CYANO THIOPHENES AND DERIVATIVES FOR THE TREATMENT OF CANCER” (BOEHRINGER INGELHEIM INTERNATIONAL GMBH, priority 2020, published 2023).

Chains of the proteins cited; added tags and fusions are not shown. Residues count along the entry.
UniProt P01116, whole entry G12C: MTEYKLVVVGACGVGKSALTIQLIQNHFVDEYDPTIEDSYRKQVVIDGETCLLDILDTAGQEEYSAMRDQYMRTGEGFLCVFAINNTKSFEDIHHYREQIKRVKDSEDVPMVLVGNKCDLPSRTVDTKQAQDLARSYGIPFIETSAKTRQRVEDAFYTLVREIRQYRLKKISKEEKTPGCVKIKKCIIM
UniProt P01116, 1-169 isoform 2 C118S/C51S/C80L/G12C limits assumed: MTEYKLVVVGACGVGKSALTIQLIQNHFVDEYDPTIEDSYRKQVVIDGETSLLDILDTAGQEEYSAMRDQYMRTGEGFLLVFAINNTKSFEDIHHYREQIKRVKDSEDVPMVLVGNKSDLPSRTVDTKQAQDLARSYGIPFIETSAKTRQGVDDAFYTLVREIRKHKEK

The structures appear in SMILES notation.

The test system of experiment [1] is pERK (Thr202/Tyr204) in NCI-H358_Cas9_SOS2 (SOS2 knocked). As to the kind of experiment: ERK phosphorylation assay 2 (AlphaLISA SureFire Ultra p-ERK1/2). The following applies: read-out: IC50 H358 pERK, ERK phosphorylation assay 2 (values marked with *).
For experiment [2], the target named is protein-protein interaction between SOS1 and KRAS G12C (Homo sapiens, UniProt P01116, C118S/C51S/C80L/G12C). The experiment can be described thus: KRAS::SOS1 AlphaScreen binding assay. The following applies: read-out: IC50 G12C::SOS1, Table 36.
The target in experiment [3] is KRASG12-dependent Ba/F3 cells (Homo sapiens, UniProt P01116, G12C, cells depend on it). The experiment can be described thus: Ba/F3 cell model proliferation assay (AlamarBlue, 72 h). The experiment is classed as cell-based. The following applies: read-out: IC50 Ba/F3 KRASG12C, Ba/F3 cells transduced with KRASG12C.

As to `C=CC(=O)N1CC2CC1CN2c1cc(-c2noc([C@@]3(C)CCCc4sc(N)c(C#N)c43)n2)nc(O[C@@H](C)[C@@H]2CCCN2C)n1` (stereo partly drawn), the IC50 in experiment [1] is 60.5 nM; in experiment [2] it was 1.6 nM. Further, the GI50 in experiment [3] was determined as 18.7 nM.
